This data set in a line: logP (acidic), lgP (HCOOH).

Turning to `CCCSP(=S)(OCC)N1CCO/C1=N\[C@H]1CCc2ccccc21` (some centres unmarked), the “lgP (HCOOH)” value (HCOOH (acidic)) came to 2.09. Also, the “Phys. data = logP (acidic)” value (acidic) worked out at 2.09.

Source of the values: EP2042507A1, “Insecticidal derivatives of phosphorylated aminoheterocycles” (dated 2009).
